The results in this text go back to ChEMBL document CHEMBL5528071, “Discovery of Novel Steroid-Based Histamine H3 Receptor Antagonists/Inverse Agonists” (J Med Chem, 2024).

By UniProt entry, the sequences of proteins in these tests, tags left out.
UniProt P35367, whole entry: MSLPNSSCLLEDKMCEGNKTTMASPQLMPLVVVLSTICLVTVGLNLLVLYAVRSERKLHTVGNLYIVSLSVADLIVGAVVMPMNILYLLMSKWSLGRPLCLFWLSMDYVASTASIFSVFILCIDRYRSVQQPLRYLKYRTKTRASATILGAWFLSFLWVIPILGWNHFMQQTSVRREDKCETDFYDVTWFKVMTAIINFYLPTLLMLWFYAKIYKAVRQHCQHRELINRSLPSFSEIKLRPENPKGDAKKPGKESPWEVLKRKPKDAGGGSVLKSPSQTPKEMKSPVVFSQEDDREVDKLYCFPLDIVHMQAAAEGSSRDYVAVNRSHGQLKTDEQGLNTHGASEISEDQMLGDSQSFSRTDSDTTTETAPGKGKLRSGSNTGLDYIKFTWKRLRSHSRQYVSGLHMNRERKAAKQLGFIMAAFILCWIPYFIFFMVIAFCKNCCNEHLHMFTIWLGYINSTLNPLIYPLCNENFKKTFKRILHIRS

This assay addresses Histamine H1 receptor (Homo sapiens) (UniProt P35367). The assay is described as follows: Inhibition of human Histamine H1 receptor at 1 uM relative to control.

For the compound `C[C@@H]1CCCN1CCCOc1ccc2c(c1)CC[C@H]1C3=CCC(=O)N[C@@]3(C)CC[C@H]21`, the inhibition (as a rule, the share of the control response that was lost under treatment) is 65%.
